Data as given in patent US20020035061A1, “COMPOSITIONS AND METHODS FOR TREATING INFECTIONS USING CATIONIC PEPTIDES ALONE OR IN COMBINATION WITH ANTIBIOTICS” (priority 1996, published 2002).
Converted amounts (≈) assume the structure as drawn.

Test system: bacterial isolates
Test: microbe, parasite or virus in culture
Details: Klebsiella pneumoniae, read-out: Ceftriaxone MIC Alone, K. pneumoniae KP003

SMILES: CO/N=C(\C(=O)N[C@@H]1C(=O)N2C(C(=O)O)=C(CSc3nc(=O)c(=O)[nH]n3C)CS[C@H]12)c1csc(N)n1 [Ceftriaxone]
- MIC: 8 µg/mL (≈ 14.4 µM)
